Among the data in PubChem BioAssay AID1861 (The Scripps Research Institute Molecular Screening Center, 2009) are inhibition values, retold here.

Chains of the proteins cited; added tags and fusions are not shown.
UniProt P48145, whole entry: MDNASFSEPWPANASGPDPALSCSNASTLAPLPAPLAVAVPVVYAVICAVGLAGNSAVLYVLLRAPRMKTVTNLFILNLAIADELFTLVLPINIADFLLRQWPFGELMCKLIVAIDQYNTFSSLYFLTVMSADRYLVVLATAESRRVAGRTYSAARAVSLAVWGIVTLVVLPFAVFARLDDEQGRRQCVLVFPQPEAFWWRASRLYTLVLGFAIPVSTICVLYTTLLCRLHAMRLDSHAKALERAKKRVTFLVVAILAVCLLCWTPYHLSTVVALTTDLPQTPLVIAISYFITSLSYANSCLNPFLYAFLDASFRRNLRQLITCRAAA

The entries are a selection whose mix differs from that of the whole data set. Some tests of the compounds listed are not included; inactive here does not mean inactive elsewhere. Calls of active or inactive are those of the source. Cut-off read from the data, not from the text of the source: active = inhibition above about 16% (passing the limit was not always enough); inactive = the rest.

This experiment addresses Neuropeptides B/W receptor type 1 (Homo sapiens) (UniProt P48145). The experiment is described as follows: GPR7 receptor antagonists, primary screen, cell-based, fluorescence, single concentration (AID 1861).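 Note: cells stimulated with the agonist NPW; 0% = agonist with vehicle and 100% = vehicle without agonist.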 As to conditions: GPR7-expressing cells, fluorescence antagonist assay; at 4.4 µM; hits give high values.
Regarding `O=C(NCC1(N2CCCCC2)CCCCC1)c1cc(F)c(F)cc1Cl`, the inhibition is inactive: -9.24%. Under `C=CCN1CCN(CCOC(=O)C(O)(c2ccccc2)c2ccccc2)CC1` stands inactive: -4.72%; under `COc1ccc(C(=O)NCC2(N(C)C)CCCCC2)cc1`, inactive: -7.28%; under `O=C(NCC1(N2CCCCC2)CCCCC1)c1cccc(Br)c1`, inactive: 0.52%. Under `CCN1CCCC(OC(=O)C2(O)c3ccccc3C=Cc3ccccc32)C1` (centres undefined) stands inactive: 2.8%.

For `Cc1cc(C(=O)NCC2(N3CCCCC3)CCCCC2)ccc1[N+](=O)[O-]`, the inhibition was inactive: -10.3%. On to `CN(C)c1ccc(C(=O)NCC2(N(C)C)CCCCC2)cc1`, for which the inhibition is inactive: -13.4%. In the case of `CN(C)C1CCCC1OC(=O)C(O)(c1ccccc1)c1ccccc1` (centres undefined), the inhibition was inactive: -13.5%. Under `Cc1ccccc1C(=O)NCC1(N2CCCCC2)CCCCC1` stands inactive: 5.74%. Next, `COc1cc(SC)ccc1C(=O)NCC1(N(C)C)CCCCC1`: inactive: 3.04%. Turning to `CCN(CC)CC(C)C(C)OC(=O)C(O)(c1ccccc1)c1ccccc1` (centres undefined), the inhibition is inactive: -8.13%.

With `CC(C)N1C(=O)CC2(CCN(CCOC(=O)C(O)(c3ccccc3)c3ccccc3)CC2)C1=O`, the inhibition was inactive: -7.61%.

With `Cc1ccc(C(=O)NCC2(N3CCCCC3)CCCCC2)cc1`, the inhibition was inactive: -2.74%. Next, `O=C(NCC1(N2CCCCC2)CCCCC1)c1cc([N+](=O)[O-])ccc1Cl`: inactive: 0.56%. Consider `CN1[C@@H]2CC[C@H]1CC(OC(=O)C(O)(c1ccccc1)c1ccccc1)C2` (some centres undefined), for which the inhibition was inactive: 8.66%. Turning to `COc1ccc(Br)c(C(=O)NCC2(N3CCCCC3)CCCCC2)c1`, the inhibition was inactive: 3.48%. Take `CC(C)Oc1ccc(C(=O)NCC2(N(C)C)CCCCC2)cc1`: the inhibition was inactive: 0.37%.

For the molecule `CN(C)c1cccc(C(=O)NCC2(N(C)C)CCCCC2)c1`, the inhibition was inactive: -2.02%.

Take `O=C(OC1CN2CCC1CC2)C(CO)(c1ccccc1)c1ccccc1` (centres undefined): the inhibition is inactive: 1.08%. In the case of `COc1ccc(Cl)cc1C(=O)NCC1(N(C)C)CCCCC1`, the inhibition is inactive: -1.54%.

Turning to `COc1cccc(C(=O)NCC2(N3CCCCC3)CCCCC2)c1`, the inhibition is inactive: -8.57%.

On to `O=C(NCC1(N2CCCCC2)CCCCC1)c1cccc(Cl)c1`, for which the inhibition is inactive: 5.09%. Next, `CN(C)C1(CNC(=O)c2ccc(Br)cc2)CCCCC1`: inactive: -11.5%; `COc1cc(C(=O)NCC2(N(C)C)CCCCC2)c([N+](=O)[O-])cc1OC`: inactive: 11.3%.
